# Assay results from US8765641B2, “Chip production, hybridization and data interpretation for antibody and protein microarrays” (Detroit R&D, Inc., priority 2004, dated 2014).
# Values joined by “and” are separate entries in the source; they are usually repeats but may differ in a detail not shown here. Identical values can stand only once. Like-named read-outs stand apart in the source and are kept apart here.
# Legend:
# CYP2B1/2B2 = conditions: rat liver microsomes+cytosol, PB 100 mg/kg/day for 3 days, 500 μg/ml IgG spots, Flag-normalized
# Calpain = conditions: rat liver microsomes+cytosol, PB 100 mg/kg/day for 3 days
# CYP2D = conditions: rat liver microsomes+cytosol, PB 100 mg/kg/day for 3 days, 500 μg/ml IgG spots
# CYP3A (CYP3A1/2/23) = conditions: rat liver microsomes+cytosol, PB 100 mg/kg/day for 3 days
# [1] = 50 μg/ml IgG spots (anti-serum)
structure (smiles),measurement,setting,value
CCC1(c2ccccc2)C(=O)NC(=O)NC1=O [phenobarbital],"Fold-Change of Protein Expression Level after PB treatment, CYP2B1/2B2",CYP2B1/2B2,9.7 fold
same,"Fold-Change of Protein Expression Level after PB treatment, CYP2B1/2B2",CYP2B1/2B2; listed as PB,9.7 fold and 9.70^a fold
same,"Fold-Change of Protein Expression Level after PB treatment, Calpain",Calpain; 5 μg/ml IgG spots (anti-serum),2.5 fold
same,"Fold-Change of Protein Expression Level after PB treatment, Calpain",Calpain; [1],2.5 fold
same,"Fold-Change of Protein Expression Level after PB treatment, CYP2D",CYP2D,2.1 fold
same,"Fold-Change of Protein Expression Level after PB treatment, CYP2D",CYP2D; listed as PB,2.1 fold and 2.10 fold
same,"Fold-Change of Protein Expression Level after PB treatment, CYP3A",CYP3A (CYP3A1/2/23); [1],2.6 fold
same,"Fold-Change of Protein Expression Level after PB treatment, CYP3A",CYP3A (CYP3A1/2/23); 500 μg/ml IgG spots (anti-serum),2.1 fold
same,"Fold-Change of Protein Expression Level after PB treatment, CYP3A","CYP3A (CYP3A1/2/23); 500 μg/ml IgG spots (anti-serum), listed as PB",2.1 fold and 2.10 fold
